Measured values: patent US6090780A, “Histidyl-proline diketopiperazine and method of use” (Chandon Prasad, priority 1999, dated 2000)

Assay: Serum CHP level (radioimmunoassay) after 7 days of CHP in drinking water
Type: in vivo, C57BL mice
Conditions: for AVERAGE SERUM LEVEL (mean ± SEM): 7 days, C57BL mice
Description: One way to increase brain CHP levels is through exogenous administration of CHP. […] Moreover, the measurement of CHP in serum has been obtained for mice and further supports the viability of exogenous CHP administration in humans. In these experiments, twenty adult male C57BL mice obtained from Jackson Laboratories were housed individually in light controlled rooms for a period of at least ten days after arrival with free access to Purina Chow and water. The lights were cycled on and off every twelve hour period. Each cage was fitted with 250 ml bottles having drip proof drinking spouts on both sides of a food bin containing Purina Chow. For the experiment, rats were divided into four groups of five mice each. Each group was treated with a different dosage of CHP dissolved in 250 milliliters of sterile water for a period of seven days. On the eighth day the mice were sacrificed and trunk blood was collected in glass test tubes. The blood was stored on ice and allowed to clot for 2 hours and centrifuged at 5° C. for 30 minutes at 2000 rpm. The serum was then collected and stored at -70° C. until processed for CHP radio-immunoassay. The radioimmunoassay involved incubating at 4-5° C. a mixture containing 0.1 ml of various dilutions of serum sample, 0.1 ml of 0.25% bovine serum albumin in phosphate buffered saline, 0.1 ml of rabbit CHP antibody and 0.1 ml of I^125 -CHP. After 48 hours incubation, free and antibody bound tracers were separated by adding 1 ml of 17.5% polyethylene glycol, MW 6000 containing bovine gamma-globulin (4 mg/ml) followed by centrifugation for 20 minutes. The supernatant was discarded and the pellet was counted for radioactivity.

## Histidyl-proline diketopiperazine [CHP]
ANOVA: F=52.51, p<0.0001
  CHP serum levels after exogenous administration in water: significantly increased
CHP 1 μg/ml in each bottle
  AVERAGE SERUM LEVEL (mean ± SEM): 1.14 ± 0.139 ng/mL
CHP 5 μg/ml in each bottle
  AVERAGE SERUM LEVEL (mean ± SEM): 1.96 ± 0.43 ng/mL
CHP 10 μg/ml in each bottle
  AVERAGE SERUM LEVEL (mean ± SEM): 3.46 ± 0.58 ng/mL
